Results on 8 molecules are retold here after patent US20190071499A1 (published 2019).

Assay [1] has as its target T1, human IFN-α8 (human, UniProt P32881 24-189). Description: cell-based or functional assay.
For assay [2], the target named is T1, human IFN-α8. The assay is described as follows: ELISA or LIPS (Table 7 summary). (In general: In an ELISA, binding on a coated surface is turned into a signal by an enzyme label.)
For assay [3], the target named is T1, human IFN-α8. Description: ELISA or LIPS (Table 7 summary; ELISA at 1 µg/ml MAB in paragraph 37).

B1: 26B9 (antibody, human IgG1, kappa, V domains shown)
VH: QILLQESGPGLVKPTETLSLTCSVSGDSISDSSHYWAWIRQPPGKGPEWIGSVYFSSMTHYNPSLKSRVSISVDKPKNQFSLKVTSVTVADTATYYCARQALARVGAMNWFDPWGQGSLVTVSS
VL: DIIMTQSPDSLPVSLGEGVTINCKSSQSVFFTSSNKSCLAWYQQKPGKSPKLLIYWASTRQSGVPDRFRGSGSGTDFSLTITSLQAEDVAVYFCQQCQTSPPTFGGGTRLEIKR
notes: human-derived IgG1, kappa; also called MAB 26B9; hMAB 26B9
Turning to B1, the “IC 50 (ng/ml), ISRE dual luciferase reporter assay” value (shortened to “IC 50 (ng/ml)”) in assay [1] turned out to be 205 ng/mL.

B2: 31B4 (antibody, human IgG1, kappa, V domains shown)
VH: QIQLQESGPGLVRPTETLSLTCSVSGDSISQSSHYWAWIRQPPGKGPEWIGSVYFSSMTHYNPSLTSRVSISIDKAMNKFSLKVTSVTVADTATYYCARQALARVGAMNWFDPWGQGSLVTVSS
VL: DIIMTQSPESLPVSLGEGVTINCKSSQSVFFTSSNRSCLAWYQQKPGQSPKLLIYWASTRQSGVPDRFTGSGSGTDFSLTIAGLQVEDVAVYFCQQCHASPPTFGGGTRLELRR
notes: human-derived IgG1, kappa; clonally related to 26B9; also called MAB 31B4; hMAB 31B4
For B2, the binding result in assay [2] is on record as “binds”.

B3: 12H5 (antibody, human IgG1, kappa, V domains shown)
VH: QVQLIQSGPEVKRPGASVKVSCKASENTFDTHYINWVRQAPGQGLTWLGWLNPTTGKTGFPQKFKGRVILTSDTSLNTAYMEVSRLTSEDTAVYFCARVLKLSDEYNYGFDVWGQGTTVIVSS
VL: DIQVTQSPSSLSASIGDRVTITCRASQNILTFINWYQHKPGKAPKLLIYAASVLQNEVPSRFSGSGSGTDFTLTITSLQPDDFGTYYCQQTYLTPQCSFGQGTKVEIKR
Turning to B3, the “IC 50 (ng/ml)” value in assay [1] came out at 0.86 ng/mL.

B4: 8H1 (antibody, human IgG1, kappa, V domains shown)
VH: QVQLVQSGAEVKKPGASVKVSCKASGQTFTSDDINWVRQAPGQGLEWMGWRNPNTQDTGYAQKFHGRLTLTSNSSISTSYLELSGLRSEDTAVYYCARAGTSTLTGHYFALGVWGQGTTVIVSS
VL: DIQLTQSPSSLSASVGDRVTITCQATQDISKYLNWYQQKPGKVPKLLIYETSNLEVGVPSRFSGSGSGTHFTLTISSLQAEDFATYYCQQYENFPFTFGGGTKVEIKR
B4: the “IC 50 (ng/ml)” value in assay [1] came out at 571 ng/mL.

B5: 5D1 (antibody, human IgG1, kappa, V domains shown)
VH: EVQLVQAGAEVKAPGESLRISCKVSGYTFTSYWISWVRQIPGKGLEWMVKIDPRDSYTIYNPSFQGHVSISVDKSITTVYLQWSSLQASDTAIYYCVRHYLTQSLVDYFDHWGQGTLVAVSS
VL: DIQMTQSPSSLSASVGDSVTITCRASQSVSNYFHWYRQKPGKAPELLIYSASNLQTGVPSRFTGSGSGTECTLTITSLQPDDFATYYCQQTHGYPFTFGQGTKLDVRR
notes: human-derived IgG1, kappa; also called MAB 5D1; hMAB 5D1
Regarding B5, the binding result in assay [2] is listed as “binds”.

B6: 13B11 (antibody, human IgG1, kappa, V domains shown)
VH: DVQLLQSGGGLIQPGGSLRLSCAASGFTFKDYAMSWVRQAPGKGLEWVSVISRSGNIVDYVDSVKGRFTVSRDNSNNTLFLQMDGLRADDTAIYYCAKPKDMIVVVPAGFDSWGQGTLVSVSS
VL: DIQMTQFPSTLSASVGDSVTITCRASQSISAWLAWYQQKPGKAPKLLIYKGSRLENGVPSRFSGSGSGTEFTLTIGSLQPDDFATYYCQQYKTWTFGQGTKVEIKR
notes: human-derived IgG1, kappa; also called MAB 13B11; hMAB 13B11
As to B6, in assay [3], the binding result is on record as “no binding”.

B7: 50E11 (antibody, human IgG1, kappa, V domains shown)
VH: QVQLVQSGAEMKKPGSSVKVSCKDFGGTFSVYGVNWVRQAPGQGLEWMGGLIPVIGPANYAQKFQGRITITADESTSTAYMELSSLRFDDTAIYYCVRDDNEYWGQGTLVTVSS
VL: EMVLTQSPATLSLSPGERATLSCRASQTVSTFLAWYQQKPGQVPRLLVYDISSRANGTPARFSGGGSGTDFTLTISSLELEDFAVYYCQWRSNWPPSLTFGGGTRVEIKR
As to B7, in assay [1], the “IC 50 (ng/ml)” value was 4.02 ng/mL.

B8: 25C3 (antibody, human IgG1, kappa, V domains shown)
VH: EMQLMESGGGLVQPGGSLRLSCVASGFTFKSFAMSWVRQAPGKGLEWVASVGSQGGSKYYAPSVKGRFSISRDNSNNTLYVQMNSLGVEDTAFYYCVKETDAVATMDALDMWGQGTLVIVST
VL: DIRVTQSPSSLSASVGDRVSISCQTSQSVNIYLNWYQQRPGKGPQLLISAASTLQSGVPSRFSGSGSGTDFILTIISLQPEDSASYYCQQGYITPYTFGQGTKVEIKR
notes: human-derived IgG1, kappa; also called MAB 25C3; hMAB 25C3
B8: in assay [2], the binding result was “binds”.
